Data on 24 compounds can be found in patent publication US9694016B2 (Novartis AG, priority 2013, dated 2017).

Protein sequences, listed by entry. Tags and fused reporters are not part of them.
UniProt P04049, whole entry Y340E/Y341E: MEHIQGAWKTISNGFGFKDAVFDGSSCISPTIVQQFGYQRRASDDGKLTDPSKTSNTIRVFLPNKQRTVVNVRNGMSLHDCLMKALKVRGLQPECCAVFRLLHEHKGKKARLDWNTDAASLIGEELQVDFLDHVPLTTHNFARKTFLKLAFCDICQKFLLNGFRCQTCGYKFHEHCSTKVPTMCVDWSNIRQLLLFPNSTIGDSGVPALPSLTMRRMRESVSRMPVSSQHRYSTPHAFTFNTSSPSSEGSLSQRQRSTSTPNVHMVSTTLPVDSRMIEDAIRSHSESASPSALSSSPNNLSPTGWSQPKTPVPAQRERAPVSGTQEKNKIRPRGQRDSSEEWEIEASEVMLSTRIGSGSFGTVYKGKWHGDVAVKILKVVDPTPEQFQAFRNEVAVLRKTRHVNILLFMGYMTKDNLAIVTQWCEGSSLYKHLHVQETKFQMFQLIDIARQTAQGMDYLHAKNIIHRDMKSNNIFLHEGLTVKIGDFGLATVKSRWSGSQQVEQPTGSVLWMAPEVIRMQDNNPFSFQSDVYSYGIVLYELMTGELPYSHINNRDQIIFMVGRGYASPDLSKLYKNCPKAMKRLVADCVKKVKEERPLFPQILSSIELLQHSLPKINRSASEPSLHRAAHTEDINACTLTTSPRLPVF

In the first experiment the target is C-Raf FL (full-length C-Raf protein, Y340E and Y341E activating mutations) (Homo sapiens (Human), UniProt P04049, Y340E/Y341E). The format is biochemical. To be noted: AlphaScreen, 60 min pre-incubation, 1 hour reaction; read-out: c-Raf FL IC-50. (Bead proximity is the source of the signal in Alpha formats.)
As to `CCOc1nc(-c2cc(NC(=O)c3ccnc(C(C)(C)C#N)c3)ccc2C)cc(N2CCOCC2)n1` [Example 764, 2-(2-cyanopropan-2-yl)-N-(3-(2-ethoxy-6-morpholinopyrimidin-4-yl)-4-methylphenyl)isonicotinamide], the IC50 amounted to 0.8 nM. For `CCNc1nc(-c2cc(NC(=O)c3cc(C(F)(F)F)c(=O)n(CC)c3)ccc2C)cc(N2CCOCC2)n1` [Example 703, 1-ethyl-N-(3-(2-(ethylamino)-6-morpholinopyrimidin-4-yl)-4-methylphenyl)-6-oxo-5-(trifluoromethyl)-1,6-dihydropyridine-3-carboxamide], the IC50 came to 0.4 nM. On the same count and under the same terms, with `Cc1ncc(NC(=O)c2cccc(C(F)(F)F)c2)cc1-c1cc(N2CCOCC2)nc(N2CCNCC2)n1` [Example 775, N-(6-methyl-5-(6-morpholino-2-(piperazin-1-yl)pyrimidin-4-yl)pyridin-3-yl)-3-(trifluoromethyl)benzamide] the figure was 4.6 nM.

As to `CCOc1ncc(-c2cc(NC(=O)c3cccc(C(F)(F)F)c3)ccc2C)nc1N1CCOCC1` [Example 538, N-(3-(5-ethoxy-6-morpholinopyrazin-2-yl)-4-methylphenyl)-3-(trifluoromethyl)benzamide], the IC50 stood at 0.3 nM. In the case of `Cc1ccc(NC(=O)c2ccnc(C(C)(F)F)c2)cc1-c1cc(N2CCOC[C@@H]2C)n(C)c(=O)c1` [Example 525, (S)-2-(1,1-difluoroethyl)-N-(4-methyl-3-(1-methyl-6-(3-methylmorpholino)-2-oxo-1,2-dihydropyridin-4-yl)phenyl)isonicotinamide], the IC50 amounted to 0.7 nM. Turning to `Cc1ccc(C(=O)Nc2cccc(C(C)C)c2)cc1-c1cc(N2CCOCC2)c(=O)n(C)c1` [Example 436, N-(3-isopropylphenyl)-4-methyl-3-(1-methyl-5-morpholino-6-oxo-1,6-dihydropyridin-3-yl)benzamide], the IC50 stood at 0.9 nM. Take `Cc1ncc(NC(=O)c2cccc(C(F)(F)F)c2)cc1-c1cc(N2CCOCC2)nc(C(C)(C)O)n1` [Example 788, N-(5-(2-(2-hydroxypropan-2-yl)-6-morpholinopyrimidin-4-yl)-6-methylpyridin-3-yl)-3-(trifluoromethyl)benzamide]: the IC50 is 38 nM.

As to `COc1nnc(-c2cc(NC(=O)c3ccnc(C4CC4)c3)cnc2C)cc1N1CCOCC1` [Example 606, 2-cyclopropyl-N-(5-(6-methoxy-5-morpholinopyridazin-3-yl)-6-methylpyridin-3-yl)isonicotinamide], the IC50 amounted to 1.3 nM. For `Cc1ncc(NC(=O)c2cccc(C(F)F)c2)cc1-c1cc(N2CCOCC2)n2nccc2n1` [Example 804, 3-(difluoromethyl)-N-(6-methyl-5-(7-morpholinopyrazolo[1,5-a]pyrimidin-5-yl)pyridin-3-yl)benzamide], the IC50 came to 0.3 nM.

Regarding `Cc1ncc(NC(=O)c2ccnc(C(F)F)c2)cc1-c1cc(N2CCOCC2)n(C)c(=O)c1` [Example 508, 2-(difluoromethyl)-N-(1′,2-dimethyl-6′-morpholino-2′-oxo-1′,2′-dihydro-[3,4′-bipyridin]-5-yl)isonicotinamide], the IC50 amounted to 2.7 nM. Still for that read-out and setting: with `CCn1c(N2CCOCC2)cc(-c2cc(NC(=O)c3ccnc(C(F)(F)CC)c3)ccc2C)cc1=O` [Example 520, 2-(1,1-difluoropropyl)-N-(3-(1-ethyl-6-morpholino-2-oxo-1,2-dihydropyridin-4-yl)-4-methylphenyl)isonicotinamide] the figure was 0.5 nM; with `Cc1ccc(NC(=O)c2ccnc(C(C)(C)O)c2)cc1-c1cc(N2CCOCC2)c(=O)n(C)n1` [Example 638, 2-(2-hydroxypropan-2-yl)-N-(4-methyl-3-(1-methyl-5-morpholino-6-oxo-1,6-dihydropyridazin-3-yl)phenyl)isonicotinamide], 2.1 nM.

The experiment is the same for the next values; noted with them: AlphaScreen, 60 min pre-incubation, reaction 1 hour at room temperature; read-out: c-Raf FL IC-50.
For `Cc1ncc(NC(=O)c2ccnc(C(C)(C)O)c2)cc1-c1cc(N2CCOCC2)nc(N2CC(O)C2)c1` [Example 1082, N-(2′-(3-hydroxyazetidin-1-yl)-2-methyl-6′-morpholino-[3,4′-bipyridin]-5-yl)-2-(2-hydroxypropan-2-yl)isonicotinamide], the IC50 was found to be 10.5 nM. As for `Cc1ncc(NC(=O)c2ccnc(C(C)(C)O)c2)cc1-c1cnc(OC2CC3(COC3)C2)c(N2CCOCC2)c1` [Example 964, N-(6′-(2-oxaspiro[3.3]heptan-6-yloxy)-2-methyl-5′-morpholino-[3,3′-bipyridin]-5-yl)-2-(2-hydroxypropan-2-yl)isonicotinamide], the IC50 was 3.17 nM. Turning to `CCOc1cc(-c2cc(NC(=O)c3ccnc(C(C)(F)F)c3)cnc2C)cc(N2CCOCC2)n1` [Example 1143, 2-(1,1-difluoroethyl)-N-(2′-ethoxy-2-methyl-6′-morpholino-[3,4′-bipyridin]-5-yl)isonicotinamide], the IC50 was 0.54 nM. `Cc1ccc(NC(=O)c2cnnc(C3CC3)c2)cc1-c1cc(N2CCOCC2)nc(N2CC(C)(O)C2)c1` [Example 1076, 6-cyclopropyl-N-(3-(2-(3-hydroxy-3-methylazetidin-1-yl)-6-morpholinopyridin-4-yl)-4-methylphenyl)pyridazine-4-carboxamide]: the IC50 was 0.39 nM. With `Cc1ncc(NC(=O)c2ccnc(C(C)(F)F)c2)cc1-c1cnc(OC(C)C)c(N2CCOCC2)c1` [Example 952, 2-(1,1-difluoroethyl)-N-(6′-isopropoxy-2-methyl-5′-morpholino-[3,3′-bipyridin]-5-yl)isonicotinamide], the IC50 stood at 0.71 nM. The same measure, in the same setting: with `Cc1ncc(NC(=O)c2cc(C(C)(F)F)ccn2)cc1-c1cnc(OC(C)C)c(N2CCOCC2)c1` [Example 956, 4-(1,1-difluoroethyl)-N-(6′-isopropoxy-2-methyl-5-morpholino-[3,3′-bipyridin]-5-yl)picolinamide] the figure was 1.16 nM.

Still in this experiment, the particulars now being: Table 2; AlphaScreen, 1 hour reaction; read-out: c-Raf FL IC-50.
`Cc1ncc(NC(=O)c2cc(CN(C)C)cc(C(F)(F)F)c2)cc1-c1cnc(C#N)c(N2CCOCC2)c1` [Example 249, N-(6′-cyano-2-methyl-5′-morpholino-[3,3′-bipyridin]-5-yl)-3-((dimethylamino)methyl)-5-(trifluoromethyl)benzamide]: the IC50 stood at 3.6 nM. Regarding `Cc1ncc(NC(=O)c2ccnc(C(C)(F)F)c2)cc1-c1cnc(N(C)C)c(N2CCOCC2)c1` [Example 267], the IC50 came out at 0.3 nM.

For `Cc1cc(C(=O)Nc2ccc(C)c(-c3cc(N4CCOCC4)c(=O)n(C)c3)c2)n(C)n1` [Example 381, 1,3-dimethyl-N-(4-methyl-3-(1-methyl-5-morpholino-6-oxo-1,6-dihydropyridin-3-yl)phenyl)-1H-pyrazole-5-carboxamide], the IC50 is 25.5 nM. On the same count and under the same terms, with `Cn1cc(-c2cc(NC(=O)c3ccnc(C(F)(F)F)c3)ccc2F)cc(N2CCOCC2)c1=O` [Example 418] the figure was 0.9 nM; with `Cc1ccc(NC(=O)c2cccc(C(F)(F)F)c2)cc1-c1cc(N2CC3(COC3)C2)nc(N2CCOCC2)n1` [Example 47, N-(4-methyl-3-(2-morpholino-6-(2-oxa-6-azaspiro[3.3]heptan-6-yl)pyrimidin-4-yl)phenyl)-3-(trifluoromethyl)benzamide], 0.4 nM.

Still in this experiment, the particulars now being: read-out: c-Raf FL IC-50.
Consider `Cc1ccc(NC(=O)c2ccnc(C(C)(F)F)c2)cc1-c1cc(N2C3CCC2COC3)c(=O)n(C)n1` [Example 670, N-(3-(5-(3-oxa-8-azabicyclo[3.2.1]octan-8-yl)-1-methyl-6-oxo-1,6-dihydropyridazin-3-yl)-4-methylphenyl)-2-(1,1-difluoroethyl)isonicotinamide], for which the IC50 was 0.9 nM.
